Results published in patent publication US11242555B2, “Molecular sensors and uses thereof” (New York University, priority 2018, dated 2022).
Only a part of the results on these compounds is given; other tests are left out.

Tested on: double-stranded oligo probe (DNA)
Test: High-throughput screen of a compound library with the linear oligo probe (FRET ratio, 384 well plate)
Assay type: binding
Settings: Cy5/Cy3 intensity, library peak ˜1.1, a small ratio indicates intercalation

With SODIUM NITROPRUSSIDE the FRET ratio was 0.09876.
